Test results from patent US12565504B2, “Spirocyclic O-glycoprotein-2-acetamido-2-deoxy-3-d-glucopyranosidase inhibitors” (BIOGEN MA INC., priority 2019, dated 2026).

Assays:
[1] = system: MDR1-MDCK cell monolayers; assay: MDR1-MDCK Efflux Ratio Assay; details: MDR1-MDCK cells, 2 hr, pH 7.4
[2] = Rat Liver Microsome Stability Assay; type: in vitro ADME; details: rat liver microsomes 0.5 mg/mL, compound 1 μM; Qh 55 mL/minute/kg

SMILES: CC(=O)Nc1nc(F)c(CN2C[C@]3(Cc4ncccc4O3)C[C@@H]2C)s1
- MDR1-MDCK Efflux Ratio (B-A/A-B) [1]: 11
- RLM % Qh (%) [2]: 72%
